In article PMC10760395, “The functionality of a therapeutic antibody candidate restored by a single mutation from proline to threonine in the variable region” (Human Vaccines & Immunotherapeutics, 2023):

Target: T1, endothelin B receptor (ETB) (Homo sapiens (species  in …, UniProt P24530))
T1 construct: also called CHO-ETB; source: CHO cell line established with ETB (CHO-ETB), on cells
Test: flow cytometry on cells; CHO-ETB cells (CHO-WT as control) incubated overnight at 4°C with antibodies from 0.01 nM to 100 nM; detected with Alexa-Fluor 488 goat anti-mouse IgG or F(ab')2 goat anti-human IgG Fc; normalised MFI fitted with one site specific binding; apparent Kd
Settings: one partner purified

B1: xiRB49-P125T (antibody, V domains shown)
VH: QVQLQQPGAALVKPGASVKLSCKASGYTFISYWMLWVKQRPGRGLEWIGRIDPDSGGTKYNEKFKSKATLTVDKSSSTAYMQLSSLTSEDSAVYYCAREGDYAWFAYWGQGTLVTVSA
VL: DVLMTQTPLSLPVSLGDQASISCRSSQSIVHSNGNTYLEWYLQKPGQSPKLLIYKVSNRFSGVPDRFSGSGSGTDFTLKISRVEAEDLGVYYCFQGSHVPWTFGGGTKLEIK
- Kd: 0.8 nM

B2: Fab-xiRB49-P125T (Fab, V domains shown)
VH: QVQLQQPGAALVKPGASVKLSCKASGYTFISYWMLWVKQRPGRGLEWIGRIDPDSGGTKYNEKFKSKATLTVDKSSSTAYMQLSSLTSEDSAVYYCAREGDYAWFAYWGQGTLVTVSA
VL: DVLMTQTPLSLPVSLGDQASISCRSSQSIVHSNGNTYLEWYLQKPGQSPKLLIYKVSNRFSGVPDRFSGSGSGTDFTLKISRVEAEDLGVYYCFQGSHVPWTFGGGTKLEIK
- Kd: 13.6 nM
